The term ED50 denotes the midpoint of the dose-response relation.

Test [1] concerns Mus musculus. Put plainly: Antiradiation activity in po dosed whole-body gamma-irradiated mouse assessed as mouse survival compound administered 60 mins prior irradiation measured after 30 days relative to control.
Test [2] has as its system Mus musculus. Put plainly: Antiradiation activity in ip dosed whole-body gamma-irradiated mouse assessed as increase in mouse survival rate compound administered 15 mins prior irradiation.
The test system of test [3] is Mus musculus. Briefly: Antiradiation activity in po dosed whole-body gamma-irradiated mouse assessed as mouse survival compound administered 30 mins prior irradiation measured after 30 days relative to control.
For test [4], the system named is Mus musculus. Put plainly: Antiradiation activity in po dosed whole-body gamma-irradiated mouse assessed as increase in mouse survival rate compound administered 60 mins prior irradiation.
For test [5], the system named is Mus musculus. Put plainly: Antiradiation activity in ip dosed whole-body gamma-irradiated mouse assessed as mouse survival compound administered 15 mins prior irradiation measured after 30 days relative to control.
Test [6] deals with Mus musculus. Put plainly: Antiradiation activity in po dosed whole-body gamma-irradiated mouse assessed as increase in mouse survival rate compound administered 30 mins prior irradiation.
For test [7], the system named is Mus musculus. Put plainly: Antiradiation activity in ip dosed whole-body gamma-irradiated mouse assessed as mouse survival compound administered 30 mins prior irradiation measured after 30 days relative to control.
In test [8] the test system is Mus musculus. Briefly: Antiradiation activity in ip dosed whole-body gamma-irradiated mouse assessed as increase in mouse survival rate compound administered 30 mins prior irradiation.
The subject of test [9] is Mus musculus. Put plainly: Antiradiation activity in po dosed whole-body gamma-irradiated mouse assessed as mouse survival compound administered 30 to 60 mins prior irradiation measured after 30 days relative to control.
For test [10], the system named is Mus musculus. Put plainly: Antiradiation activity in po dosed whole-body gamma-irradiated mouse assessed as increase in mouse survival rate compound administered 30 to 60 mins prior irradiation.

Regarding `NCCCCCC(N)CSP(=O)(O)O` (stereo unspecified), the Survival came out at 30% in the test on Mus musculus [1], 0% in the test on Mus musculus [3] and 100% in the test on Mus musculus [5]. The 50% effective dose (ED50) in the test on Mus musculus [2] was determined as 94 mg/kg. Besides, the MED in the test with Mus musculus [2] came to 200 mg/kg; in the test with Mus musculus [4], 400 mg/kg; with Mus musculus [6], 800 mg/kg.

On to `NCCCC[C@H](N)CSP(=O)(O)O`, for which the Survival in the test with Mus musculus [1] worked out at 10%; with Mus musculus [3] it was 80%; in the test on Mus musculus [5], 70%. In addition, the 50% effective dose (ED50) with Mus musculus [2] was determined as 25 mg/kg. The MED is 62.5 mg/kg with Mus musculus [2], 500 mg/kg in the test with Mus musculus [4] and 500 mg/kg in the test with Mus musculus [6].

Take `NCCC[C@H](N)CSP(=O)(O)O`: the ED50 in the test with Mus musculus [2] amounted to 54 mg/kg. Besides, the MED amounted to 200 mg/kg in the test on Mus musculus [2] and 1000 mg/kg with Mus musculus [6]. For the same compound, the Survival in the test with Mus musculus [3] is 0%; in the test on Mus musculus [5] it was 100%.

With `NCCCCC(N)CSP(=O)(O)O` (stereo unspecified), the Survival in the test on Mus musculus [1] came out at 20%; in the test with Mus musculus [3] it was 60%; with Mus musculus [5], 90%. Also, the ED50 in the test on Mus musculus [2] stood at 24 mg/kg. The figures for the MED with Mus musculus [2], with Mus musculus [4] and in the test on Mus musculus [6] were 250 mg/kg, 500 mg/kg and 500 mg/kg, respectively.

As for `NCCCC(N)CSP(=O)(O)O` (stereo unspecified), the ED50 with Mus musculus [2] amounted to 100 mg/kg. Moreover, the MED with Mus musculus [2] came to 250 mg/kg; with Mus musculus [6], 1000 mg/kg. For the same compound, the Survival in the test with Mus musculus [3] was 0%; in the test on Mus musculus [5], 100%.

In the case of `NCC[C@H](N)CSP(=O)(O)O`, in the test with Mus musculus [2], the 50% effective dose (ED50) amounted to 83 mg/kg. In addition, the MED was 250 mg/kg in the test with Mus musculus [2] and 1000 mg/kg in the test on Mus musculus [6]. Moreover, the Survival with Mus musculus [3] came to 0%; in the test with Mus musculus [5] it was 90%.

Take `NCC(N)CSP(=O)(O)O` (stereo unspecified): the Survival in the test on Mus musculus [7] amounted to 80%; in the test with Mus musculus [9] it was 0%. In the test with Mus musculus [8], the median effective dose (ED50) came out at 230 mg/kg. Further, the MED came to 400 mg/kg with Mus musculus [8] and 800 mg/kg in the test with Mus musculus [10].

The values are drawn from ChEMBL document CHEMBL3244256 (J Med Chem, 1979).
